The values below come from the kinase profiling compilation of Christmann-Franck et al. (2016).

Protein sequences, listed by entry. Tags and fused reporters are not part of them.
FLT4 (human), P35916, UniProt P35916, whole entry, looked up, stated change not applied: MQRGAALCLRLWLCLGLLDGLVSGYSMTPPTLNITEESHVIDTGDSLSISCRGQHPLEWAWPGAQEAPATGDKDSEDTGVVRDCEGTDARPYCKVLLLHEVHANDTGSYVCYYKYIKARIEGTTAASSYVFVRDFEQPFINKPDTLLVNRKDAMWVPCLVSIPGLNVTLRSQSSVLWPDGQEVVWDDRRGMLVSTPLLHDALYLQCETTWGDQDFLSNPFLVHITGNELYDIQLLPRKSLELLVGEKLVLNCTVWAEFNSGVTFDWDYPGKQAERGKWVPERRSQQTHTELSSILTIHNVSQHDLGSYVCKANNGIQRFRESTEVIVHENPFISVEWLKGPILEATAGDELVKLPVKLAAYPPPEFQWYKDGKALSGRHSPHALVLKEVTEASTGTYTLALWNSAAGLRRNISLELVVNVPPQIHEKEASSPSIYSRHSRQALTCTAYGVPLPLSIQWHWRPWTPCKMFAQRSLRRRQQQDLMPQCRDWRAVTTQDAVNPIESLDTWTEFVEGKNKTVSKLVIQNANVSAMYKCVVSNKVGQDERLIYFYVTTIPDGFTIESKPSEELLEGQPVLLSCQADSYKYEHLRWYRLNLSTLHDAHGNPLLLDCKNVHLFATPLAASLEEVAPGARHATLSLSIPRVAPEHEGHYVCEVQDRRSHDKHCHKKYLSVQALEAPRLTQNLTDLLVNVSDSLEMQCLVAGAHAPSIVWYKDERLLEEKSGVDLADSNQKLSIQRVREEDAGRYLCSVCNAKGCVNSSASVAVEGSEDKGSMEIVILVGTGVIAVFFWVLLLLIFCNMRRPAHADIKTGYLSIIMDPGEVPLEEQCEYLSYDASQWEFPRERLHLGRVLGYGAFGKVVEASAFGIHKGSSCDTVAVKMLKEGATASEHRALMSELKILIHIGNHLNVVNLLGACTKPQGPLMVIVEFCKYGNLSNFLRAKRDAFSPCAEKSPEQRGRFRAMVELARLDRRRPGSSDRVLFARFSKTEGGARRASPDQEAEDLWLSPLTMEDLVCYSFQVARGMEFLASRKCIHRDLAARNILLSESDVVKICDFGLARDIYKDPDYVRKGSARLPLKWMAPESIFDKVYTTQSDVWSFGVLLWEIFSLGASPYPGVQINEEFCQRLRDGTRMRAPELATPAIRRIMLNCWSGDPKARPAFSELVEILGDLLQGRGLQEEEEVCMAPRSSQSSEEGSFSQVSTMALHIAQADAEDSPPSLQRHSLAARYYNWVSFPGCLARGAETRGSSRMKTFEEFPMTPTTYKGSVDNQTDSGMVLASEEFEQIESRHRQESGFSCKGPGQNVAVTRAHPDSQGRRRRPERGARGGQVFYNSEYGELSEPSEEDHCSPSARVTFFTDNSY
MAP2K6 (human), P52564, UniProt P52564, whole entry S207E/T211E, looked up: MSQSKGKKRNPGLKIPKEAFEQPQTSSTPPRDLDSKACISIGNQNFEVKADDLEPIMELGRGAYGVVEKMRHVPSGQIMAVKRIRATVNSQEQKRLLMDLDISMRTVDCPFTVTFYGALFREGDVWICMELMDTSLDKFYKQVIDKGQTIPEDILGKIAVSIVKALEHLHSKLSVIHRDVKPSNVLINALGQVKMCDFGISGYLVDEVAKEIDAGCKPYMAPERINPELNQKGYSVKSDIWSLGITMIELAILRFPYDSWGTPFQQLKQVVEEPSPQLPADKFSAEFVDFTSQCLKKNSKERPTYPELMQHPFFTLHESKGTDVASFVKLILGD
MKNK1 (human), Q9BUB5, UniProt Q9BUB5, whole entry, looked up, stated change not applied: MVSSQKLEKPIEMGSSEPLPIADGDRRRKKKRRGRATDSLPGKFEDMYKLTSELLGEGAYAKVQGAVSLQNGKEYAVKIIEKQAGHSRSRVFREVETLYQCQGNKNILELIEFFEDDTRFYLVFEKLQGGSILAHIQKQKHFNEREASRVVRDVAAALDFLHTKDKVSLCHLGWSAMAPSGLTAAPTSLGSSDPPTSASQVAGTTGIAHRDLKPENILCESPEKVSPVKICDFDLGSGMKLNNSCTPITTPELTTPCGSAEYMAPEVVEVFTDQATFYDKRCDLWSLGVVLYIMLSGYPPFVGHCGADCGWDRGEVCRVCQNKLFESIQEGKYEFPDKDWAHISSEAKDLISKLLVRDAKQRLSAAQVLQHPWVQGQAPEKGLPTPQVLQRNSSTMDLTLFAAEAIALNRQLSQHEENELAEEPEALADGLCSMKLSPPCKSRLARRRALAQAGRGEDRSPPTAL
PRKCQ (human), Q04759, UniProt Q04759, whole entry P330L, looked up: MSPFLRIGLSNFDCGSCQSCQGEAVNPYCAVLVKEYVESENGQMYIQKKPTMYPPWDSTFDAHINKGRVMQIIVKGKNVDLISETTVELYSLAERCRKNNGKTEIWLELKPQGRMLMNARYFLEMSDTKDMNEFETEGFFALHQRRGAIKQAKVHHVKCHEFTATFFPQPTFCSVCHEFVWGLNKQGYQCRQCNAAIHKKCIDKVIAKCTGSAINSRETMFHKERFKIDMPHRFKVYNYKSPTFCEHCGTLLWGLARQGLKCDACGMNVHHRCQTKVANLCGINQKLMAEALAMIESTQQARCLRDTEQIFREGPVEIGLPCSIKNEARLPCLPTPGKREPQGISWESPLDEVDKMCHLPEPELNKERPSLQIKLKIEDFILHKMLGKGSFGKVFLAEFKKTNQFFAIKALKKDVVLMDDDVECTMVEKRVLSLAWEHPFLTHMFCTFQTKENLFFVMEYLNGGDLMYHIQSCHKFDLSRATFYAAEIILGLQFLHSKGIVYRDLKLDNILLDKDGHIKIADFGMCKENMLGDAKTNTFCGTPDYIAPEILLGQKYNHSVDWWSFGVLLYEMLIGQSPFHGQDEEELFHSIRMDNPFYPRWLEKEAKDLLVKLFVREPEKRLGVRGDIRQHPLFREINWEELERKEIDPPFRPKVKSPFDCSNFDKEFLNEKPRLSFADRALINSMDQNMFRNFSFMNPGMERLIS

What all share (assay): radiometric filter-binding kinase assay, Kinase HotSpot
Details in all cases: compound 0.5 µM; ATP 10 µM

Experiment [1] relates to FLT4 (human), P35916 [Q890H].
The subject of experiment [2] is MAP2K6 (human), P52564 [S207E/T211E].
Experiment [3] has as its system MKNK1 (human), Q9BUB5 [T385D; 165-205 del].
Experiment [4] deals with PRKCQ (human), Q04759 [P330L].

The structures appear in SMILES notation.

On to `O=C1Nc2ccc3ncsc3c2/C1=C/c1c[nH]cn1`, for which the residual activity – broadly, the signal under treatment as a percentage of the control signal – was determined as 12.1% in experiment [1], 56.8% in experiment [2], 9.89% in experiment [3] and 112% in experiment [4].
For `CO[C@H]1[C@@H](OC)C[C@H](C)[C@@H](OC)C2=CC(=O)C=C(NC(=O)/C(C)=C\C=C/[C@H](OC)[C@@H](OC(N)=O)/C(C)=C\[C@@H]1C)C2=O` the same measures were 99.7%, 89.2%, 110% and 93%.
For `O=C1c2ccccc2-[n+]2ccc3c([nH]c4ccccc43)c21` the same measures were 94.8%, 114%, 90.4% and 79.3%.
On to `COc1cc(OC)c(/C=C2\C(=O)Nc3ccccc32)c(OC)c1`, for which the residual activity was 105% in experiment [1], 92% in experiment [2], 105% in experiment [3] and 94.3% in experiment [4].
